Binding of CDR-mutated scFvs to a peptide of the spike HR2 region

Values reported by Li et al. 2023, doi:10.1038/s41467-023-39022-2 (FLAb copy).

Target: peptide PDVDLGDISGINAS, taken from heptad repeat 2 (HR2) of SARS-CoV-2 spike.

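Phage display of a naive human antibody library on the peptide gave the parent. The variants were designed computationally from a first round of random CDR variants and then made and measured. Their group label is 14H_GPLM_Gibbs (GPLM: also part of the Gaussian process libraries; Gibbs: Gibbs sampling; a sequence that several methods proposed may carry one label only). Affinity was read by AlphaSeq, a pooled yeast mating assay with surface-displayed partners. Pairs that bind mate more often; barcode pairs of the diploids are counted by sequencing. Read counts were normalised to the haploid input and turned into Kd by a linear fit to BCL2-family pairs of known affinity, for each replicate. The assay was run in six technical replicates.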

Each scFv is VH, three GGGGS repeats, VL, as in the parent Ab-14, and differs from it in the CDRs of the heavy chain only.
VH: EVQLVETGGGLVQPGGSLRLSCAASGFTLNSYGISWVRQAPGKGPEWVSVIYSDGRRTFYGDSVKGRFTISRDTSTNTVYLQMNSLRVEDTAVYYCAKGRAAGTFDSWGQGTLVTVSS
VL: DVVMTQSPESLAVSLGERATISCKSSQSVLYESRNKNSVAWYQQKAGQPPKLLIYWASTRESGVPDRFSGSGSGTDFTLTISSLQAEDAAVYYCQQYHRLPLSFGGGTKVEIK

Positions count from residue 1 of the parent VH; S31E puts E in place of S. Scale: log10 of Kd in nM, estimated from mating counts; low values are strong binders. The mean shown is taken over the replicates in which the pair was detected. "nd" marks a missing value. The strain was present, yet no cells mated with the target were sequenced in that replicate, which points to weak or no binding. The parent sequence was in this pool as ten entries: three were never detected, three once, and four in most replicates, with averages from 0.34 to 2.37.

changes | replicates, log10 nM | log10 Kd (nM), mean | signal with controls
S31E+G61S+A101Q+S107T | nd / nd / nd / nd / nd / 0.51 | 0.51 | 1/18 (-0.08)
T28D+A101T+S107A | -0.19 / -0.53 / -0.40 / -0.90 / -0.55 / -0.60 | -0.53 | 1/18 (3.12)
T28N+G61V+R100Q+S107A | 2.02 / 2.19 / 1.13 / 1.30 / 2.13 / 1.06 | 1.64 | 0/18
T28Q+S31E+A101T+S107V | -0.23 / -0.08 / -0.30 / -0.34 / 0.11 / 0.14 | -0.11 | 1/18 (2.96)
T28E+G61A+A101M+S107T | 0.77 / 0.40 / nd / 1.49 / nd / 1.79 | 1.11 | 0/18
T28E+G61A+R100K+A101E | -0.21 / -0.04 / -0.16 / -0.31 / -0.13 / 0.14 | -0.12 | 2/18 (2.70)
T28E+G61S+R100T | nd / nd / nd / nd / 2.29 / nd | 2.29 | 0/18
T28Q+G61A+A101L | 0.15 / -0.05 / 0.18 / 0.95 / 0.83 / 0.63 | 0.45 | 1/18 (1.17)
T28E+A101L+S107T | 0.42 / -0.02 / -0.18 / -0.22 / 0.21 / 0.68 | 0.15 | 0/18
R56K+S63A+A101T | 1.41 / 1.41 / 1.00 / 2.23 / 1.59 / 1.48 | 1.52 | 0/18
T28S+G61T+S63D+R100N | 0.26 / 0.75 / -0.08 / 0.06 / 0.25 / -0.35 | 0.15 | 0/18
T28E+R100K+A101Q | 0.53 / 0.73 / 0.35 / 0.86 / 0.31 / 0.68 | 0.58 | 1/18 (1.54)
R56Q+G61A+A101V+S107L | 1.09 / 0.71 / 0.56 / -0.28 / 0.42 / 0.36 | 0.48 | 0/18
T28D+S31T+A101T | 0.32 / -0.17 / 0.13 / 0.04 / -0.14 / -0.04 | 0.02 | 0/18
R56V+G61S+A101V | 0.31 / 0.16 / 0.20 / 0.23 / -0.02 / 0.50 | 0.23 | 1/18 (2.33)
R56Q+G61S+A101E+S107T | 0.34 / 0.09 / -0.16 / 0.01 / 0.90 / 0.29 | 0.24 | 0/18
T28E+S31E+A101Q+S107T | 0.16 / 0.08 / -0.04 / -0.50 / 0.83 / 0.22 | 0.12 | 1/18 (1.03)
T28D+A101E+S107D | 0.44 / -0.21 / -0.16 / 0.21 / 0.14 / -0.33 | 0.02 | 0/18
N30E+R56K+A101T | 0.60 / 1.08 / 0.53 / 0.40 / 1.10 / 0.73 | 0.74 | 0/18
T28N+G61V+R100K | nd / 1.41 / nd / nd / 1.18 / 1.25 | 1.28 | 0/18
T28E+G61I+R100S | -0.19 / -0.35 / -0.58 / -0.05 / -0.23 / -0.53 | -0.32 | 0/18
T28D+R100W+S107L | 1.58 / 1.13 / 0.79 / 1.67 / 0.74 / 1.57 | 1.25 | 0/18
T28E+R100D | 0.37 / 0.75 / -0.13 / 0.14 / 0.44 / 0.39 | 0.33 | 0/18
T28D+S31T+R100K | 0.77 / 1.29 / 0.50 / 0.36 / 0.19 / 0.51 | 0.60 | 0/18
T28G+S31E+R56K+A101T | -0.11 / -0.45 / -0.33 / -0.43 / 0.02 / 0.13 | -0.20 | 0/18
T28S+S31E+A101H+S107T | nd / nd / nd / nd / nd / nd | nd | 0/18
T28N+G61V+R100N | 0.14 / 0.14 / -0.22 / 0.65 / 0.05 / 0.22 | 0.16 | 2/18 (1.43)
T28W+S31E+S63A+A101T | 1.65 / 1.01 / 1.02 / 1.98 / 1.69 / 3.24 | 1.76 | 0/18
R56K+G61A+R100N | nd / nd / nd / nd / nd / nd | nd | 1/18 (1.05)
T28S+G61I+R100N+S107K | 0.84 / 0.20 / 0.37 / 0.92 / 0.52 / 1.00 | 0.64 | 0/18
T28N+G61I+A101M | 1.68 / 1.82 / 1.22 / 1.86 / 1.22 / 2.00 | 1.63 | 0/18
T28E+G61D+A101T | 0.32 / -0.12 / nd / -0.87 / 0.34 / 0.84 | 0.10 | 0/18
R56L+G61S+A101T | 0.06 / -0.50 / -0.04 / 0.24 / -0.32 / -0.05 | -0.10 | 0/18
T28E+G61A+R100T+A101T | 0.24 / -0.01 / -0.05 / -0.17 / -0.08 / 0.02 | -0.01 | 0/18
T28D+F59A+A101E | 0.33 / 0.63 / 0.43 / 0.16 / 0.30 / 0.08 | 0.32 | 1/18 (2.08)
T28G+S31E+R100Q | 0.76 / 0.07 / 0.38 / 0.24 / 0.11 / 0.51 | 0.34 | 0/18
T28F+S31E+R100Q+A101T | 0.71 / nd / nd / nd / nd / nd | 0.71 | 1/18 (1.05)
T28N+F59A+R100Q | 1.37 / 0.14 / 0.58 / 0.69 / -0.05 / 0.44 | 0.53 | 0/18
G61I+R100N+A101V | 1.29 / 0.53 / 0.50 / 0.19 / 0.44 / 3.04 | 1.00 | 0/18
T28N+G61A+R100H+A101V | 0.99 / 0.48 / 0.93 / 1.63 / 1.80 / 0.76 | 1.10 | 0/18
T28G+G61S+R100K | 0.08 / 0.15 / -0.28 / 0.38 / 0.82 / 1.01 | 0.36 | 0/18
T28E+G61I+A101Q | 1.62 / 0.79 / nd / 1.37 / 1.61 / 1.66 | 1.41 | 0/18
G61A+R100H+S107T | 0.50 / 0.52 / 0.45 / 0.17 / 0.16 / 0.43 | 0.37 | 0/18
T28E+S31Q+A101T | 0.00 / -0.06 / 0.01 / 0.50 / -0.16 / 0.01 | 0.05 | 0/18
T28E+G61I | nd / 2.10 / nd / nd / 2.45 / 1.43 | 2.00 | 0/18
T28S+S53A+R100Q+S107A | 0.09 / 0.82 / -0.65 / -0.45 / -0.85 / -0.77 | -0.30 | 0/18
T28D+A101T+S107K | 0.27 / -0.29 / -0.33 / -0.12 / -0.31 / -0.03 | -0.13 | 0/18
R56K+R100W+A101V+S107T | 1.17 / nd / 0.66 / 1.55 / 2.54 / 1.02 | 1.39 | 1/18 (1.27)
T28S+G61K+R100K+A101E | 1.01 / -0.34 / -0.35 / -0.36 / -0.27 / -0.17 | -0.08 | 0/18
T28D+S31Q+R100Q | 1.11 / 2.54 / 0.67 / 1.06 / 1.11 / 1.20 | 1.28 | 0/18
T28A+G61I+A101Q | nd / 0.86 / 1.42 / 2.15 / 1.75 / 2.06 | 1.65 | 0/18
G61A+S63D+R100N | 0.49 / 0.36 / 0.75 / 0.28 / 0.66 / 0.53 | 0.51 | 0/18

Extract of 9 entries:

changes,"replicates, log10 nM","log10 Kd (nM), mean",signal with controls
T28D+A101T+S107A,-0.19 / -0.53 / -0.40 / -0.90 / -0.55 / -0.60,-0.53,1/18 (3.12)
T28S+G61I+R100N+S107K,0.84 / 0.20 / 0.37 / 0.92 / 0.52 / 1.00,0.64,0/18
T28G+G61S+R100K,0.08 / 0.15 / -0.28 / 0.38 / 0.82 / 1.01,0.36,0/18
T28D+A101E+S107D,0.44 / -0.21 / -0.16 / 0.21 / 0.14 / -0.33,0.02,0/18
T28N+G61V+R100K,nd / 1.41 / nd / nd / 1.18 / 1.25,1.28,0/18
T28Q+G61A+A101L,0.15 / -0.05 / 0.18 / 0.95 / 0.83 / 0.63,0.45,1/18 (1.17)
T28E+S31Q+A101T,0.00 / -0.06 / 0.01 / 0.50 / -0.16 / 0.01,0.05,0/18
G61A+R100H+S107T,0.50 / 0.52 / 0.45 / 0.17 / 0.16 / 0.43,0.37,0/18
R56K+G61A+R100N,nd / nd / nd / nd / nd / nd,nd,1/18 (1.05)

Background: pairings of all heavy chain designs with three empty control strains gave a value in 1% of cases (median 2.08, 5th percentile 0.84). Values in that range, when seen in few replicates, are hard to tell from nonspecific mating. The control count says in how many pairings with the empty strains this scFv gave a signal, with their mean in brackets. The authors averaged sequences with at least three values out of six and counted those with two or fewer as poor binders. The range of this assay differs from that of the first round, and the authors advise against merging the two.